Experimental data reported in paper PMC3233431.

Substrate: C=CC1=C(C)C2=Cc3c(C=C)c(C)c4[n]3[Fe]([Cl])[n]3c(c(C)c(CCC(=O)O)c3=CC3=NC(=C4)C(C)=C3CCC(=O)O)=CC1=N2
Experiment: purified protein
Details: NADPH, 0.1 M HEPES-NaOH pH 7.2, hemin 1-20 μM

B1: mTaHO1 (mature TaHO1) (Triticum aestivum) (protein)
chain: AAAAATEMAPAARGEGGGKPFMDEMRAVAMRLHTKDQAREGEKEPQAPPVARWEPTVEGYLRFLVDSKLVFQTLEDIVDRAAVPWYAEFRNTGLERSEPLKKDLEWFTEQGHTIPEPSAAGTAYASYLEELSEKDPQAFICHFYNVYFAHTAGGRMIGKKVAEKILNKKELEFYKWEGTLSQLLQNVRTTLNQVASSWSREEKDHCLEETEKSFAYSGDLLRQIFT
Km: 3.04 µM
